Literature values, collected in patent US20040229295A1, “Activated delivery of biomolecules using electromagnetic energy” (priority 1999, published 2004).

Conditions: thermal denaturation

## human serum albumin
  total change in free energy for unfolding: 42 kJ/mol
